Drawing on publication PMC4167674 (Angewandte Chemie (International ed. in English), 2013), this text covers IC50 for one substance.

The target in this test is ConA (Canavalia ensiformis, UniProt P02866). Particulars: read-out: IC50 (inhibitory concentration 50); ELLA; binding affinity between the sugar ligand and a single CRD in the lectin.

As for Man3, the IC50 came to 75 ± 6 µM.
